Assay results reported in patent US12583836B2 (Anaxis Pharma Pty Ltd, priority 2020, dated 2026).

Sequences of proteins named here, by UniProt entry; tags and fusion partners are left off. A change or cut given only in a name is not applied to a line headed by its entry.
UniProt Q9Y572: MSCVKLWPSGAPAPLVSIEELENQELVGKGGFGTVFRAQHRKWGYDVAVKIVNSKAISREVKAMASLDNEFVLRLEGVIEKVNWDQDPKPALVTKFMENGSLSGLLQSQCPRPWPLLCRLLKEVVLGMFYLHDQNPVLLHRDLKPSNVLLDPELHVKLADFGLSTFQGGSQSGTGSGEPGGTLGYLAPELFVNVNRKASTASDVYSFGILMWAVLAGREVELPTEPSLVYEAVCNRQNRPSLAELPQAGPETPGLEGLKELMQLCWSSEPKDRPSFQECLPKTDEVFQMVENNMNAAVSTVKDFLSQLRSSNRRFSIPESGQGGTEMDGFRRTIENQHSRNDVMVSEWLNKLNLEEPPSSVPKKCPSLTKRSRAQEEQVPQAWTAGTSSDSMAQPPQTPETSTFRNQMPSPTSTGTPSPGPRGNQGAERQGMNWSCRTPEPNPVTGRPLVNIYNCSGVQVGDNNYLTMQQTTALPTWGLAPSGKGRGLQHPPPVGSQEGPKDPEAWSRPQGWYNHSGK

Tests used:
Conditions in all cases: equilibrium dissociation constant, class symbols
MLKL (full length) = target: T1, MLKL (full length) (Homo sapiens, UniProt Q8NB16); test: KINOMEscan binding assay, MLKL
T1 construct: purchased DiscoverX (KINOMEscan service); host or cells: E. coli BL21-derived (T7 phage) or HEK293
T1 sequence (Q8NB16 1-471): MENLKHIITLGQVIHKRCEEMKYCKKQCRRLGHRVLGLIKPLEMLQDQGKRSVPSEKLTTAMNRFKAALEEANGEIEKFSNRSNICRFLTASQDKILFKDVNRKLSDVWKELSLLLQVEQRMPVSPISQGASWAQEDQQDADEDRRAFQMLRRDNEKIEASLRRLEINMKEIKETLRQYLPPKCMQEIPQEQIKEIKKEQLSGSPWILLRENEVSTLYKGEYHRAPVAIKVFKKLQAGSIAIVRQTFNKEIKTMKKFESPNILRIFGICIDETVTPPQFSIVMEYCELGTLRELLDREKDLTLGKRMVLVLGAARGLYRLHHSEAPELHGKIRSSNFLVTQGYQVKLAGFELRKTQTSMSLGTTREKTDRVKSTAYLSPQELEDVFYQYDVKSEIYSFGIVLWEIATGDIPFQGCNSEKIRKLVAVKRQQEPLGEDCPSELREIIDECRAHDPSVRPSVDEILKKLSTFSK

RIP1 = target: T2, RIP1 (Homo sapiens, UniProt Q13546); test: KINOMEscan binding assay, RIP1
T2 construct: purchased DiscoverX (KINOMEscan service); host or cells: E. coli BL21-derived (T7 phage) or HEK293
T2 sequence (Q13546 1-671): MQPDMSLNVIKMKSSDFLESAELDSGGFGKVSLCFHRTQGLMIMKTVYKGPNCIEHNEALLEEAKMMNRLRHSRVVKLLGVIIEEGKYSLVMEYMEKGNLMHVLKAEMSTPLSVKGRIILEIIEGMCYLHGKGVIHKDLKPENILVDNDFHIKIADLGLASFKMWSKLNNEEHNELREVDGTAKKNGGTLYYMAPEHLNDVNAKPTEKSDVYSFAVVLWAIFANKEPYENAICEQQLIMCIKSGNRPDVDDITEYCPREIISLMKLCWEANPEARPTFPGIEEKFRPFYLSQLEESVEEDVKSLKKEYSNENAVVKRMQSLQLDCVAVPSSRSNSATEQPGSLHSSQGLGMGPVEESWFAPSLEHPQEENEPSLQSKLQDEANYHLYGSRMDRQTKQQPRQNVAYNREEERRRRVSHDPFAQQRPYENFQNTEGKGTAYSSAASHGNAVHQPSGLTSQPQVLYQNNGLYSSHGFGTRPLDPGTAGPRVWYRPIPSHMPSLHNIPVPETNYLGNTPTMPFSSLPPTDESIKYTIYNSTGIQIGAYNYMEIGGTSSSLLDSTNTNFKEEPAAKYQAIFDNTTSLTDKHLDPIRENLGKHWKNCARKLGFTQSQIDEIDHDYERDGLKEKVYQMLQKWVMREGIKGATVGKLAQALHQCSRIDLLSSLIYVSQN

RIP3 = target: T3, RIP3 (Homo sapiens, UniProt Q9Y572); test: KINOMEscan binding assay, RIP3
T3 construct: purchased DiscoverX (KINOMEscan service); host or cells: E. coli BL21-derived (T7 phage) or HEK293

| SMILES | Kd (MLKL (full length)) [µM] | Kd (RIP1) [µM] | Kd (RIP3) [µM] |
| --- | --- | --- | --- |
| CCS(=O)(=O)Nc1ccc(-c2n[nH]c(Nc3ccccn3)c2C(N)=O)cc1OCc1ccc(Cl)cc1 [Compound 39, 3-(3-((4-chlorobenzyl)oxy)-4-(ethylsulfonamido)phenyl)-5-(pyridin-2-ylamino)-1H-pyrazole-4-carboxamide] | < 0.01 | 1 to 30 | > 30 |
| CCS(=O)(=O)Nc1ccc(-c2n[nH]c(Nc3cnccn3)c2C(N)=O)cc1OCc1ccc(Cl)cc1 [Compound 42, 3-(3-((4-chlorobenzyl)oxy)-4-(ethylsulfonamido)phenyl)-5-(pyrazin-2-ylamino)-1H-pyrazole-4-carboxamide] | < 0.01 | > 30 | > 30 |
| COCCS(=O)(=O)Nc1ccc(-c2n[nH]c(Nc3cccc(C(F)(F)F)n3)c2C(N)=O)cc1 [Compound 50, 3-(4-((2-methoxyethyl)sulfonamido)phenyl)-5-((6-(trifluoromethyl)pyridin-2-yl)amino)-1H-pyrazole-4-carboxamide] | 0.01 to 1 | > 30 | > 30 |
| Cc1ccc(CS(=O)(=O)Nc2ccc(-c3n[nH]c(Nc4cccc(C(F)(F)F)n4)c3C(N)=O)cc2)cc1 [Compound 57, 3-(4-((p-tolylmethyl)sulfonamido)phenyl)-5-((6-(trifluoromethyl)pyridin-2-yl)amino)-1H-pyrazole-4-carboxamide] | 0.01 to 1 | 1 to 30 | > 30 |
| Cc1cnc(Nc2[nH]nc(-c3ccc(NS(=O)(=O)C(F)F)c(O[C@@H](C)c4ccc(F)cc4)c3)c2C(N)=O)cn1 [Compound 245, 3-[4-(difluoromethanesulfonamido)-3-[(1S)-1-(4-fluorophenyl)ethoxy]phenyl]-5-[(5-methylpyrazin-2-yl)amino]-1H-pyrazole-4-carboxamide] | – | – | > 30 |
| C[C@@H](Oc1cc(NS(=O)(=O)C(F)F)ccc1-c1n[nH]c(Nc2cnccn2)c1C(N)=O)c1ccc(F)cc1 [Compound 255, 3-[4-(difluoromethanesulfonamido)-2-[(1R)-1-(4-fluorophenyl)ethoxy]phenyl]-5-[(pyrazin-2-yl)amino]-1H-pyrazole-4-carboxamide] | – | – | > 30 |
| C[C@H](Oc1cc(-c2n[nH]c(Nc3cnccn3)c2C(N)=O)ccc1NS(=O)(=O)CC(F)(F)F)c1ccc(Cl)cc1 [Compound 259, 3-{3-[(1S)-1-(4-chlorophenyl)ethoxy]-4-(2,2,2-trifluoroethane-sulfonamido)phenyl}-5-[(pyrazin-2-yl)amino]-1H-pyrazole-4-carboxamide] | – | – | > 30 |
| CCS(=O)(=O)Nc1ccc(-c2n[nH]c(Nc3cnccn3)c2C(N)=O)cc1OCc1ccccn1 [Compound 261, 3-{4-ethanesulfonamido-3-[(pyridin-2-yl)methoxy]phenyl}-5-[(pyrazin-2-yl)amino]-1H-pyrazole-4-carboxamide] | – | > 30 | > 30 |
| Cc1cnc(Nc2[nH]nc(-c3ccc(NS(=O)(=O)CC(F)(F)F)c(O[C@@H](C)c4ccc(F)cc4)c3)c2C(N)=O)cn1 [Compound 264, 3-{3-[(1S)-1-(4-fluorophenyl)ethoxy]-4-(2,2,2-trifluoroethanesulfonamido)phenyl}-5-[(5-methylpyrazin-2-yl)amino]-1H-pyrazole-4-carboxamide] | – | – | > 30 |
| NC(=O)c1c(-c2ccc(NS(=O)(=O)CC(F)(F)F)c(OCc3ccc(Cl)cc3)c2)n[nH]c1Nc1ccccn1 [Compound 269, 3-{3-[(4-chlorophenyl)methoxy]-4-(2,2,2-trifluoroethanesulfonamido)phenyl}-5-[(pyridin-2-yl)amino]-1H-pyrazole-4-carboxamide] | – | – | > 30 |
| CCc1cc(Nc2[nH]nc(-c3ccc(NS(=O)(=O)C(F)F)c(O[C@@H](C)c4ccc(F)cc4)c3)c2C(N)=O)no1 [Compound 274, (S)-3-(4-((difluoromethyl)sulfonamido)-3-(1-(4-fluorophenyl)ethoxy)phenyl)-5-((5-ethylisoxazol-3-yl)amino)-1H-pyrazole-4-carboxamide] | – | – | > 30 |
| C[C@H](Oc1cc(-c2n[nH]c(Nc3cc(C(C)(C)C)on3)c2C(N)=O)ccc1NS(=O)(=O)C(F)F)c1ccc(F)cc1 [Compound 282, (S)-5-((5-(tert-butyl)isoxazol-3-yl)amino)-3-(4-((difluoromethyl)sulfonamido)-3-(1-(4-fluorophenyl)ethoxy)phenyl)-1H-pyrazole-4-carboxamide] | – | – | > 30 |
| C[C@H](Oc1cc(-c2n[nH]c(Nc3cc(C(C)(C)F)on3)c2C(N)=O)ccc1NS(=O)(=O)C(F)F)c1ccc(F)cc1 [Compound 297] | – | – | > 30 |
| C[C@H](Oc1cc(-c2n[nH]c(Nc3cc(C45CC6CC(CC(C6)C4)C5)on3)c2C(N)=O)ccc1NS(=O)(=O)C(F)F)c1ccc(F)cc1 [Compound 304, (S)-5-((5-(adamantan-1-yl)isoxazol-3-yl)amino)-3-(4-((difluoromethyl)sulfonamido)-3-(1-(4-fluorophenyl)ethoxy)phenyl)-1H-pyrazole-4-carboxamide] | – | – | > 30 |
| Cc1nccc(Nc2[nH]nc(-c3ccc(NS(=O)(=O)C(F)F)c(O[C@@H](C)c4ccc(F)cc4)c3)c2C(N)=O)n1 [Compound 309, (S)-3-(4-((difluoromethyl)sulfonamido)-3-(1-(4-fluorophenyl)ethoxy)phenyl)-5-((2-methylpyrimidin-4-yl)amino)-1H-pyrazole-4-carboxamide] | – | – | > 30 |

Now from value to compound:

| Kd (MLKL (full length)) [µM] | Kd (RIP1) [µM] | Kd (RIP3) [µM] | SMILES |
| --- | --- | --- | --- |
| < 0.01 | > 30 | > 30 | C[C@H](Oc1cc(-c2n[nH]c(Nc3cnccn3)c2C(N)=O)ccc1NS(=O)(=O)C(F)F)c1ncco1 (single isomer, unassigned) [Compound 279] |
| 0.01 to 1 | > 30 | > 30 | CCS(=O)(=O)Nc1ccc(-c2n[nH]c(Nc3cnccn3)c2C(N)=O)cc1OCc1ccccc1F [Compound 2, 3-(4-(ethylsulfonamido)-3-((2-fluorobenzyl)oxy)phenyl)-5-(pyrazin-2-ylamino)-1H-pyrazole-4-carboxamide] |
| 0.01 to 1 | > 30 | > 30 | CCS(=O)(=O)Nc1ccc(-c2n[nH]c(Nc3cccc(C(F)(F)F)n3)c2C(N)=O)cc1OCc1ccc(Cl)cc1 [Compound 4, 3-(3-((4-chlorobenzyl)oxy)-4-(ethylsulfonamido)phenyl)-5-((6-(trifluoromethyl)pyridin-2-yl)amino)-1H-pyrazole-4-carboxamide] |
| 0.01 to 1 | > 30 | > 30 | CCS(=O)(=O)Nc1ccc(-c2n[nH]c(Nc3cnccn3)c2C(N)=O)cc1N(C)Cc1ccc(F)cc1 [Compound 13, 3-(4-(ethylsulfonamido)-3-((4-fluorobenzyl)(methyl)amino)phenyl)-5-(pyrazin-2-ylamino)-1H-pyrazole-4-carboxamide] |
| < 0.01 | > 30 | 1 to 30 | CCS(=O)(=O)Nc1ccc(-c2n[nH]c(Nc3ccnc(OC)c3)c2C(N)=O)cc1OCc1ccc(F)cc1 [Compound 18, 3-(4-(ethylsulfonamido)-3-((4-fluorobenzyl)oxy)phenyl) 5-((2-methoxypyridin-4-yl)amino)-1H-pyrazole-4 carboxamide] |
| < 0.01 | > 30 | > 30 | CCS(=O)(=O)Nc1ccc(-c2n[nH]c(Nc3cnccn3)c2C(N)=O)cc1OCCc1ccc(F)cc1 [Compound 24] |
| < 0.01 | > 30 | 1 to 30 | CC(C)S(=O)(=O)Nc1ccc(-c2n[nH]c(Nc3cccc(C(F)(F)F)n3)c2C(N)=O)cc1 [Compound 54, 3-(4-((1-methylethyl)sulfonamido)phenyl)-5-((6-(trifluoromethyl)pyridin-2-yl)amino)-1H-pyrazole-4-carboxamide] |
| 0.01 to 1 | > 30 | 1 to 30 | CCS(=O)(=O)Nc1ccc(-c2n[nH]c(Nc3cnccn3)c2C(N)=O)cc1OC [Compound 61, 3-(4-(ethylsulfonamido)-3-methoxyphenyl)-5-(pyrazin-2-ylamino)-1H-pyrazole-4-carboxamide] |
| < 0.01 | – | 1 to 30 | CCS(=O)(=O)Nc1ccc(-c2n[nH]c(Nc3cccc(C(F)F)n3)c2C(N)=O)cc1 [Compound 92, 5-((6-(difluoromethyl)pyridin-2-yl)amino)-3-(4-(ethylsulfonamido)phenyl)-1H-pyrazole-4-carboxamide] |
